# Results published in US20030170250A1, “Local delivery of long lasting therapeutic agents” (priority 1998, published 2003).
# Read-outs that look alike come from different tables or passages of the source.
# Experiments:
# [1] = tested on: damaged rabbit carotid arteries
# [2] = tested on: damaged rabbit carotid arteries; details: 100 μM, artery harvested immediately (FIG. 1)
substance,measurement,setting,value
[^3H]-NHS-propionate,retention after three days based on residual radioactivity in the artery,"[1]; 100 μM, 3 minute incubation, three days (FIG. 2)",10.94%
same,"retention efficiency, % of total amount incubated","[1]; 100 μM, 3 minutes incubation, 3 days (FIG. 3)",0.6 % of total amount incubated
same,"enhancement in retention, covalently versus non covalently bound propionate","[1]; 3 minutes incubation, 3 days (FIG. 3)",12 fold
same,retention of the material 72 hours after injury,"[1]; after restitution of blood flow, 72 hours (FIG. 2)",approximately 10%
same,association efficiency,[2]; 30 seconds of incubation,2.55%
same,association efficiency,[2]; 3 min incubation,5.5%
same,association efficiency,[2]; 30 min incubation,6.5%
